Reference: PubChem BioAssay AID540277 (National Center for Advancing Translational Sciences (NCATS), 2011)
Hit rate of the full screen: of about 320,000 compounds, about 55 (0.02%) were called active. Only results without a clear call are listed here; the source files them as inconclusive. Cut-off read from the data, not from the text of the source: active = potentiation above about 80%; inconclusive = between about 30% and that limit; inactive = weaker than that.
Note: 0% is about no effect.

The chains behind the UniProt entries cited, without tags or fusion partners.
UniProt Q8NER1, whole entry, looked up: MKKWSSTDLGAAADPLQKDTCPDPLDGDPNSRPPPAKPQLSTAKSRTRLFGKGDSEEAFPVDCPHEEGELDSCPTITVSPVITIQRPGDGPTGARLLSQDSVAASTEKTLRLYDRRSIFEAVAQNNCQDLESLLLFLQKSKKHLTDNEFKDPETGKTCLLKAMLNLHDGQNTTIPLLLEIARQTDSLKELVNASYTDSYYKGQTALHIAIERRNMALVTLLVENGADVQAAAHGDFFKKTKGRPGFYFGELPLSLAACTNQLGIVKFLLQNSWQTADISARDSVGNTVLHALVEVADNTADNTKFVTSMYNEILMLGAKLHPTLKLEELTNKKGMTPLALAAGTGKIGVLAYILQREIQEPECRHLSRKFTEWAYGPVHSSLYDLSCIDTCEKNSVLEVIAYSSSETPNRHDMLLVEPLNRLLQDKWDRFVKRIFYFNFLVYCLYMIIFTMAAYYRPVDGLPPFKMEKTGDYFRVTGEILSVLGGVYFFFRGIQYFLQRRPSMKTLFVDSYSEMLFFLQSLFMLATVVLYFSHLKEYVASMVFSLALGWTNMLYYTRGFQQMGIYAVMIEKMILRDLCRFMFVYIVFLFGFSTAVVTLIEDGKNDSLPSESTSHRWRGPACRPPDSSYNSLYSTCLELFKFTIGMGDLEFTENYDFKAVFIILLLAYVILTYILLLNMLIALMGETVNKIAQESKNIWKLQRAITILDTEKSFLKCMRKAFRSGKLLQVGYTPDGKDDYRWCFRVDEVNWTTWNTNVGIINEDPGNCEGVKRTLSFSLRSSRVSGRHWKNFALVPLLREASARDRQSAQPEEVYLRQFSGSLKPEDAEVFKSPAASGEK

What follows are compounds tested against Transient receptor potential cation channel subfamily V member 1 (Homo sapiens) (UniProt Q8NER1) (assay: HTS Assay for Compounds that Act as Potentiators of the Vanilloid Receptor 1). Conditions: TRPV1-expressing cells, Fluo-8 calcium influx, capsaicin EC20 potentiation; at 8.33 µM; hits give high values.
Source text: The transient receptor potential ion channel, family V, number 1, (TRPV1) is one of the most important molecular transducers of painful stimuli and a potential target for analgesic drug development. Although recent clinical trials with orthosteric antagonists have not produced a successful drug because of a hyperthermia side effect and their tendency to block thermal noxious pain, this ion channel is undeniably well placed in the pain pathway, and the idea of blocking pain signals before they enter the CNS is an excellent concept and of proven efficacy when TRPV1 agonists are used. […]
Upon TRPV1 activation in TRPV1 cells, the channel opens and extracellular cations flow through the channel into the cytosol. […] The amount of accumulated calcium is precisely quantified using the FDSS kinetic reader and the calcium dye. […] Plates will be loaded into the FDSS kinetic reader and a 1 sec / cycle for 10 second baseline signal will be measured. Compound library will then be added with a pintool at 23 nl and measured kinetically for 3 minutes. This portion of the read is considered the agonist portion of the screen. […] Signal will be measured kinetically for an additional 2 minutes. This portion of the read is considered the allosteric enhancer portion of the screen. The FDSS reader has a standard filter set capable of measuring calcium bound Fluo-8 (ex=480 and em=520 nm).
In the case of `Cc1ccc(C(=O)OC2CN3CCC2CC3)cc1` (stereo unspecified), the potentiation is reported as inconclusive: 52%.
